Biological target: N-terminal HiBiT tagged BCL6 (Homo sapiens, UniProt P41182)
Test: HiBiT based degradation assay
Conditions: HT1080 cells expressing N-terminal HiBiT tagged BCL6, 5 hours of incubation
From the text: Human BCL6 protein coding open reading frame fused with N-terminal HiBiT coding sequence was synthesized from Integrated DNA Technologies (IDT). Next, the N-HiBiT-BCL6 sequence was cloned into pLV-UBC-PGK-Puro, a lentivirus plasmid purchased from Vectorbuilder, to generate pLV-UBC-N-HiBiT-BCL6-PGK-puro. Lentiviral particles were generated from Lenti-X™ 293T cells (Clontech) by co-transfection of pLV-UBC-N-HiBiT-BCL6-PGK-puro plasmids and lentiviral packaging plasmid mix (Cellecta). HT1080 [HT1080] (ATCC CCL-121) cells were infected with the lentivirus, and HT1080 cells stably integrated with the lentiviral vectors were established by incubation with 1 μg/mL puromycin (Thermofisher).
HT1080 cells expressing N-terminal HiBiT tagged BCL6 were dispensed into a 384-well plate pre-spotted with compounds at varying concentrations. Five thousand cells were seeded into each well in 40 μL of RPMI 1640 media plus 10% Fetal Bovine Serum (10082-147, Thermofisher). After 5 hours of incubation at 37° C. with 5% CO2, 30 μL of the NANO-GLOR HiBiT Lytic Detection System working solution (Promega) was added to each well and incubated at room temperature for 15 min. After incubation, luminescence was read on a PHERAstar FSX Plate Reader (BMG). BCL6 degradation at each indicated concentration was normalized with DMSO control. The BCL6 degradation curves were plotted using a four-parameter logistic model.

Ymin (5 hr) (BCL6 degradation normalized with DMSO control): ++ (50% ≤ Ymin < 70%)
EC50 (read-out: EC50 (5 hr), four-parameter logistic model): 10 to 100 nM
SMILES: CNC(=O)COc1cc2cc(Nc3nc(N4CCN(CC5CCN(c6cccc7c(N8CCC(=O)NC8=O)nn(C)c67)CC5)CC4)ncc3Cl)cnc2n(C)c1=O

Reference: patent publication US20260241012A1, “1,8-NAPHTHYRIDIN-2-ONE HETEROBIFUNCTIONAL BCL6 DEGRADERS” (Treeline Biosciences, Inc., priority 2022, published 2026)
